Laboratory results published in PubChem BioAssay AID602248 (The Scripps Research Institute Molecular Screening Center, 2012).
The list shows a part of the results, in another mix than the full data. Some salts and complexes are drawn in separate pieces, as the source files them; their charges need not balance. The source made the active and inactive calls. Rule as the data show it: active = activation above about 15%; inactive = the rest.

assay: counter-screen for M1 agonists: effect in parental CHO-K1 cells (AID 602248); conditions: Fluo-8 calcium fluorescence, at 3 µM, stronger effect = higher value, scaled to maximal ATP response, vehicle zero;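 also: untransfected CHO-K1 host cells lacking M1 receptor as counterscreen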

Compound	activation
COc1ccc(OP(C)(=O)Nc2cccc(F)c2)cc1 (centres undefined)	inactive: -0.33%
COc1ccccc1OP(C)(=O)Nc1cc(Cl)ccc1C (centres undefined)	inactive: 1.14%
Cc1cc(C)cc(OP(C)(N)=O)c1 (centres undefined)	inactive: -0.44%
CCOC(=O)c1ccc(NP(C)(=O)Oc2ccccc2)cc1 (centres undefined)	inactive: 2.03%
Cc1ccc(NP(C)(=O)Oc2ccccc2)c(C)c1 (centres undefined)	inactive: 0.93%
COc1ccccc1OP(C)(=O)Nc1ccc(C)cc1 (centres undefined)	inactive: -0.42%
Cc1cccc(C)c1OP(C)(N)=O (centres undefined)	inactive: -0.05%
CC(C)(C)c1ccc(OP(C)(=O)Nc2ccc(SC(F)(F)F)cc2)cc1 (centres undefined)	inactive: 0.33%
O=[N+]([O-])c1ccc2c(c1)C=Nc1ccccc1O2	inactive: 1.42%
O=[N+]([O-])c1cc([N+](=O)[O-])c(Nc2cccnc2)c([N+](=O)[O-])c1	inactive: 13.5%
COc1cc(C(=O)NCC2(N3CCOCC3)CCCCC2)ccc1OCC(C)C	inactive: -0.38%
COc1ccccc1-c1ccccn1.O=[N+]([O-])c1cc([N+](=O)[O-])c(O)c([N+](=O)[O-])c1	inactive: 0.55%
CCN(CC)CCCOC(=O)C(O)(c1ccccc1)c1ccccc1	inactive: 0.35%
CP(=O)(Nc1ccccn1)Oc1ccc(Cl)cc1 (centres undefined)	inactive: 1.31%
CCOP(C)(=S)SCC(=O)NC(C)C(=O)O (centres undefined)	inactive: 0.32%
O=[N+]([O-])c1cc([N+](=O)[O-])c(O)c([N+](=O)[O-])c1.c1ccc(Oc2ccncc2)cc1	inactive: 0.34%
CCOC(=O)c1ccc(NP(C)(=O)Oc2ccc(OC)cc2)cc1 (centres undefined)	inactive: 2.23%
Cc1cc(C)cc(OP(C)(=O)Nc2ccc(SC(F)(F)F)cc2)c1 (centres undefined)	inactive: -0.27%
CCc1ccc(OP(C)(=O)N2CCN(c3ccc([N+](=O)[O-])cc3)CC2)cc1 (centres undefined)	inactive: 13%
CP(=O)(NC(=O)Nc1ccccc1)Oc1ccccc1 (centres undefined)	inactive: -0.15%
CP(=O)(Oc1ccccc1)OC(c1ccccc1)C(F)(F)F (centres undefined)	active: 22%

Compound	activation
CP(=O)(Nc1ccc(SC(F)(F)F)cc1)Oc1ccc(Cl)cc1 (centres undefined)	inactive: 1.26%
Cc1cccc(C)c1OP(C)(=O)Nc1ccc(SC(F)(F)F)cc1 (centres undefined)	inactive: 1.02%
Cc1ccc(Nc2c([N+](=O)[O-])cc([N+](=O)[O-])cc2[N+](=O)[O-])cc1	inactive: 8.29%
COc1ccccc1OP(C)(=O)Nc1ccccc1 (centres undefined)	inactive: -0.34%
CP(=O)(Nc1ccccc1Br)Oc1ccccc1 (centres undefined)	inactive: 1.33%
CP(=S)(Nn1cnnc1)Oc1ccccc1 (centres undefined)	inactive: 0.04%
CCCCOc1ccc(C(=O)NCC2(N3CCCCC3)CCCCC2)cc1OC	inactive: 1.1%
CP(=O)(Nc1ccc(SC(F)(F)F)cc1)Oc1ccccc1 (centres undefined)	inactive: 2.47%
CCCOc1ccc(NP(C)(=O)Oc2ccc(Cl)cc2)cc1 (centres undefined)	inactive: 0.26%
COc1ccc(-c2ccccn2)cc1.O=[N+]([O-])c1cc([N+](=O)[O-])c(O)c([N+](=O)[O-])c1	inactive: 0.4%
CN1CCCCC1COC(=O)C1(O)c2ccccc2CCc2ccccc21 (centres undefined)	inactive: 0.73%
COc1ccccc1OP(C)(=O)Nc1c(C)cccc1C (centres undefined)	inactive: 1.13%
CCOC(=O)C(CC)C1=NC(C)(C)Cc2ccccc21.O=[N+]([O-])c1cc([N+](=O)[O-])c(O)c([N+](=O)[O-])c1 (centres undefined)	inactive: -0.27%
O=[N+]([O-])c1cc([N+](=O)[O-])c(Nc2nnnn2CCO)c([N+](=O)[O-])c1	inactive: 1.6%
CC1=C2N=C(C=C3N=C(C(C)=C4[N-][C@@](C)([C@@H]5N=C1[C@](C)(CCC(=O)NC[C@@H](C)OP(=O)([O-])O[C@H]1[C@@H](O)[C@@H](n6cnc7cc(C)c(C)cc76)O[C@@H]1CO)[C@H]5CC(N)=O)[C@@](C)(CC(N)=O)[C@@H]4CCC(N)=O)[C@@](C)(CC(N)=O)[C@@H]3CCC(N)=O)C(C)(C)[C@@H]2CCC(N)=O.[C-]#N.[Co+3]	inactive: 0.5%
CN(C)C1(CNC(=O)c2ccc(S(C)(=O)=O)cc2)CCCCC1	inactive: 0.46%
Cc1nc2ccc3ccccc3c2s1.O=[N+]([O-])c1cc([N+](=O)[O-])c(O)c([N+](=O)[O-])c1	inactive: 0.32%
O=[N+]([O-])c1cc([N+](=O)[O-])c(-c2cnn(-c3ccccc3)c2)c([N+](=O)[O-])c1	inactive: 2.63%
CN(Cc1cccnc1)C(=O)COc1ccc(Cl)c(Cl)c1.O=[N+]([O-])c1cc([N+](=O)[O-])c(O)c([N+](=O)[O-])c1	inactive: 2.07%
O=[N+]([O-])c1cc([N+](=O)[O-])c(-n2nnc3ccccc32)c([N+](=O)[O-])c1	inactive: -0.58%
CP(=O)(Nc1cccc(Br)c1)Oc1ccccc1 (centres undefined)	inactive: 1.81%

Compound	activation
Cc1cc(C)cc(OP(C)(=O)Nc2ccccn2)c1 (centres undefined)	inactive: -0.31%
Cc1ccc(C)c(NP(C)(=O)Oc2ccccc2)c1 (centres undefined)	inactive: 0.47%
Cc1cc(C)cc(OP(C)(=O)Nc2ccc(C)cc2C)c1 (centres undefined)	inactive: 1.05%
CCOC(=O)c1ccc(NP(C)(=O)Oc2cc(C)cc(C)c2)cc1 (centres undefined)	inactive: 0.59%
COc1ccccc1OP(C)(=O)Nc1cccc(Br)c1 (centres undefined)	inactive: 0.44%
COc1cc(C(=O)NCC2(N3CCOCC3)CCCCC2)cc(Cl)c1OC(C)C	inactive: -0.36%
CC1=NCCc2c1[nH]c1ccccc21.O=[N+]([O-])c1cc([N+](=O)[O-])c(O)c([N+](=O)[O-])c1	inactive: 0.37%
O=C(O)c1cccc(Nc2c([N+](=O)[O-])cc([N+](=O)[O-])cc2[N+](=O)[O-])c1	inactive: 0.87%
CCCCCOc1ccc(NP(C)(=O)Oc2ccc(Cl)cc2Cl)cc1 (centres undefined)	inactive: 9%
O=[N+]([O-])c1cc([N+](=O)[O-])c(OC2CCCCC2O)c([N+](=O)[O-])c1 (centres undefined)	inactive: 0.7%
CP(=O)(Nc1ccccc1)Oc1ccc(F)cc1 (centres undefined)	inactive: 0.9%
CCN(CC)CCCOC(=O)C(O)(c1ccccc1)C1CCCCC1 (centres undefined)	inactive: 0.99%
Cc1c([N+](=O)[O-])cc([N+](=O)[O-])c(Br)c1[N+](=O)[O-]	inactive: -0.08%
COc1ccc(OP(C)(=O)Nc2ccc(SC(F)(F)F)cc2)cc1 (centres undefined)	inactive: 3.55%
CCOC(=O)c1ccc(NP(C)(=O)Oc2ccc(F)cc2)cc1 (centres undefined)	inactive: 1.26%
CCN(CC)CCCNc1ccccc1[N+](=O)[O-].O=[N+]([O-])c1cc([N+](=O)[O-])c(O)c([N+](=O)[O-])c1	inactive: 0.48%
COc1ccc2c(c1O)-c1c(O)c(OC)cc3c1[C@H](C2)[N+](C)(C)CC3.O=[N+]([O-])c1cc([N+](=O)[O-])c([O-])c([N+](=O)[O-])c1[O-]	inactive: 0.07%
O=C(OCCN1CCN(CCOCc2ccccc2)CC1)C(O)(c1ccccc1)c1ccccc1	inactive: 3.51%
O=C(OC1CN2CCC1CC2)c1ccc([N+](=O)[O-])cc1 (centres undefined)	inactive: 0.14%
CC(C)c1ccc(OP(C)(=O)Nc2ccc(SC(F)(F)F)cc2)cc1 (centres undefined)	inactive: 0.04%
CP(=O)(Nc1ccccc1F)Oc1ccccc1 (centres undefined)	inactive: 0.02%

Compound	activation
O=[N+]([O-])c1cc([N+](=O)[O-])c(Nc2ccc(Cl)cc2)c([N+](=O)[O-])c1	inactive: 11.8%
O=[N+]([O-])c1cc([N+](=O)[O-])c(C(F)(F)F)c([N+](=O)[O-])c1O	inactive: 0.16%
Cc1ccccc1NP(C)(=O)Nc1ccccc1C	inactive: 0.23%
CP(=O)(Nc1ccc2c(c1)OCCO2)Oc1ccccc1 (centres undefined)	inactive: 2.18%
CCOP(C)(=S)SCC(=O)NC(C)(CC)C(=O)O (centres undefined)	inactive: 0.37%
CP(=O)(Nc1ccc(SC(F)(F)F)cc1)Oc1ccc(F)cc1 (centres undefined)	inactive: 4.23%
Cc1c(C(c2ccc3c(c2)OCO3)c2c(C)n(C)n(-c3ccccc3)c2=O)c(=O)n(-c2ccccc2)n1C.O=[N+]([O-])c1cc([N+](=O)[O-])c(O)c([N+](=O)[O-])c1	inactive: 0.96%
O=[N+]([O-])c1cc([N+](=O)[O-])c(NCC2CCS(=O)(=O)C2)c([N+](=O)[O-])c1 (centres undefined)	inactive: 1.29%
Cc1cc(-c2cccc3ccccc23)c(C)cn1.O=[N+]([O-])c1cc([N+](=O)[O-])c(O)c([N+](=O)[O-])c1	inactive: -0.35%
O=[N+]([O-])c1ccc(OP2(=O)COCCO2)cc1 (centres undefined)	inactive: 0.74%
COc1ccc(NP(C)(=O)Oc2ccccc2OC)cc1 (centres undefined)	inactive: 0.27%
CN(C)CCOC(=O)C(O)(c1ccccc1)C1CCCCC1 (centres undefined)	inactive: 11.1%
CN(C)C1(CNC(=O)c2ccc(Cl)c(S(N)(=O)=O)c2)CCCCC1	inactive: 1.6%
COc1ccc(OP(C)(=O)Nc2cccc(Br)c2)cc1 (centres undefined)	inactive: -0.21%
CP(=O)(OC12CC3CC(CC(C3)C1)C2)OC12CC3CC(CC(C3)C1)C2	inactive: 2.66%
CCOC(=O)c1ccc(NP(C)(=O)Oc2ccc(Cl)cc2)cc1 (centres undefined)	inactive: 1.32%
CN(C)C(=O)c1c([N+](=O)[O-])cc([N+](=O)[O-])cc1[N+](=O)[O-]	inactive: 0.34%
CP(=O)(Nc1ccc(Cl)cc1)Oc1ccc(F)cc1 (centres undefined)	inactive: 0.89%
CC(C)(C)c1ccc(OP(C)(=O)O)cc1	inactive: 1.05%
COc1ccccc1OP(C)(=O)Nc1ccccc1Br (centres undefined)	inactive: -0.2%
CCc1ccc(OP(C)(=O)Nc2cccnc2)cc1 (centres undefined)	inactive: -0.16%
